Here are results for two molecules from patent US9475779B2, “Substituted bicyclic dihydropyrimidinones and their use as inhibitors of neutrophil elastase activity” (priority 2014, dated 2016).

The chains behind the UniProt entries cited, without tags or fusion partners. Where a name states a change or a piece, a line headed by the entry shows the natural chain unless it says otherwise.
UniProt P08246: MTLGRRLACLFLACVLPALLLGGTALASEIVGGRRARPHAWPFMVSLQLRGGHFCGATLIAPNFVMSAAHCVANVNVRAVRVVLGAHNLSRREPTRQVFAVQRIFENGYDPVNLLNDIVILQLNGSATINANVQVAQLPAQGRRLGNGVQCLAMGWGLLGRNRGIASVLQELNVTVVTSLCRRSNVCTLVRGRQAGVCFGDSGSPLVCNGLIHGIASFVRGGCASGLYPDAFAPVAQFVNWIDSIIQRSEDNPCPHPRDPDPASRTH

The assay has as its target neutrophil elastase (Homo sapiens (Human), UniProt P08246). Briefly: biochemical. Conditions: substrate MeOSuc-Ala-Ala-Pro-Val-AMC.

Regarding `CC[S+]([O-])c1cc(C#N)ccc1C1C2=C(CCC2=O)N(c2cccc(C(F)(F)F)c2)C(=O)N1C` (single isomer, unassigned) [Example C.5.2, 3-Ethanesulfinyl-4-[3-methyl-2,5-dioxo-1-(3-trifluoromethyl-phenyl)-2,3,4,5,6,7-hexahydro-1H-cyclopentapyrimidin-4-yl]-benzonitrile], inhibition (Neutrophil Elastase assay) was half-maximal at 1.9 nM (IC50).
Turning to `CC[S+]([O-])c1cc(C#N)ccc1C1C2=C(CCC2=O)N(c2cccc(C(F)(F)F)c2)C(=O)N1C` (single isomer, unassigned) [Example C.5.1, 3-Ethanesulfinyl-4-[3-methyl-2,5-dioxo-1-(3-trifluoromethyl-phenyl)-2,3,4,5,6,7-hexahydro-1H-cyclopentapyrimidin-4-yl]-benzonitrile], for the setting “IC50, Neutrophil Elastase assay”, the IC50 (commonly the point on the concentration scale where inhibition reaches its midpoint) was determined as 1.9 nM.
